Measured values: ChEMBL document CHEMBL3232806 (J Med Chem, 2014)

Biological target: T1, NAD-dependent protein deacetylase sirtuin-2 (Homo sapiens) (UniProt Q8IXJ6)
T1 sequence (whole entry): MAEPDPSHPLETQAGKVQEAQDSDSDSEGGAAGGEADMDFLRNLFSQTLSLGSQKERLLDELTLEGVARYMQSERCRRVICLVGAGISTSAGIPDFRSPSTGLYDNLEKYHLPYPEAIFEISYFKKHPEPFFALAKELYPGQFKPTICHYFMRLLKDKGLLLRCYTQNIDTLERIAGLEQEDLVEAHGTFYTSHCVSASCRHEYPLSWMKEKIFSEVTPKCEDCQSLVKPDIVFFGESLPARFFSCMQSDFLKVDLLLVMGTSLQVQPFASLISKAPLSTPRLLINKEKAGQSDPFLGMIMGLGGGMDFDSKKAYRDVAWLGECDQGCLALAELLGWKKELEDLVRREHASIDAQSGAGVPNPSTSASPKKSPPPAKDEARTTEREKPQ
Test: Inhibition of SIRT2 (unknown origin) at 50 uM by luminescence assay relative to control
Outline: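 Single-point inhibition at 50 μM compound was measured by the luminescent SIRT-Glo assay. SIRT1 was human His6-tagged (C-terminal), expressed in E. coli BL21-DE3 with IPTG induction and purified on Ni-NTA. SIRT2 was obtained commercially.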

inhibition: 46%
SMILES: O=c1[nH]c(=S)[nH]c(-c2ccccc2)c1Cc1c(O)ccc2ccccc12
